Assay results reported in ChEMBL document CHEMBL3864161, “5-Aminopyrazole-4-carboxamide analogues are selective inhibitors of Plasmodium falciparum microgametocyte exflagellation and potential malaria transmission blocking agents” (Bioorg Med Chem Lett, 2016).

Protein sequences, listed by entry. Tags and fused reporters are not part of them. Lines headed by an entry give the natural chain unless they say otherwise; changes in a name come on top.
UniProt Q12809: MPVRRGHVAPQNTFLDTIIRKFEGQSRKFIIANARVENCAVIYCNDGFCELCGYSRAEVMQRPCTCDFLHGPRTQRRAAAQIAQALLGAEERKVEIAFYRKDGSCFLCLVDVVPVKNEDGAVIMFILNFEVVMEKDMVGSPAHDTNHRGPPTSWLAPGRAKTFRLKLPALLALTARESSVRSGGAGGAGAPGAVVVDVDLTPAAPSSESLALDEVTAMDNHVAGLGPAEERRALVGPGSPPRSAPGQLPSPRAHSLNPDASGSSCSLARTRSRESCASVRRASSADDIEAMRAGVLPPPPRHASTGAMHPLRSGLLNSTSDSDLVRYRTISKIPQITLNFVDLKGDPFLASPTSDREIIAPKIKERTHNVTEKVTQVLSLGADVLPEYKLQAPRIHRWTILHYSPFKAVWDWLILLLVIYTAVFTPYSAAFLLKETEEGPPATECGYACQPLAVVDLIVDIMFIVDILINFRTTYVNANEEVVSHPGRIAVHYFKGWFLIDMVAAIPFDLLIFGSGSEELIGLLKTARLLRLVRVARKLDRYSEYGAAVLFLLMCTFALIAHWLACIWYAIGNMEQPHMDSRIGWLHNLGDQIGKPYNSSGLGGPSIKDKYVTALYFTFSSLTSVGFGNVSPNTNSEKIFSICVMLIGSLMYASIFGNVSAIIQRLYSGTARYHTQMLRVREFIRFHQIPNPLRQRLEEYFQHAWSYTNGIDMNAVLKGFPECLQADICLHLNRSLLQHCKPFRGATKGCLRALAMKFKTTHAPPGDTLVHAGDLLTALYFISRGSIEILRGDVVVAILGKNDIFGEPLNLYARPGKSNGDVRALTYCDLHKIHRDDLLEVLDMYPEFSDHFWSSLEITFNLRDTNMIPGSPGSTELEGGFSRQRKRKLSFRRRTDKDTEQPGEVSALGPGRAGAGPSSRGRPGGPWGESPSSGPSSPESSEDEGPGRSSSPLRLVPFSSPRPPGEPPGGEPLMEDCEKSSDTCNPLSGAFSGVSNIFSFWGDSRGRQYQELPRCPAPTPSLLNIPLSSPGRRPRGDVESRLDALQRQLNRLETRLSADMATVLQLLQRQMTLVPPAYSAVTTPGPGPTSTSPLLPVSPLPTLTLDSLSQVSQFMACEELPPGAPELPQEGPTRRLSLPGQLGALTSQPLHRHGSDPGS

Experiments:
[1] = biological target: Voltage-gated inwardly rectifying potassium channel KCNH2 (Homo sapiens, UniProt Q12809)
Plasmodium falciparum [2] = assay: microbe, parasite or virus in culture; settings: read-out: INH
[3] = biological target: T1, Calmodulin-domain protein kinase 1 (Toxoplasma gondii, UniProt Q9BJF5)
T1 sequence (Q9BJF5 whole entry): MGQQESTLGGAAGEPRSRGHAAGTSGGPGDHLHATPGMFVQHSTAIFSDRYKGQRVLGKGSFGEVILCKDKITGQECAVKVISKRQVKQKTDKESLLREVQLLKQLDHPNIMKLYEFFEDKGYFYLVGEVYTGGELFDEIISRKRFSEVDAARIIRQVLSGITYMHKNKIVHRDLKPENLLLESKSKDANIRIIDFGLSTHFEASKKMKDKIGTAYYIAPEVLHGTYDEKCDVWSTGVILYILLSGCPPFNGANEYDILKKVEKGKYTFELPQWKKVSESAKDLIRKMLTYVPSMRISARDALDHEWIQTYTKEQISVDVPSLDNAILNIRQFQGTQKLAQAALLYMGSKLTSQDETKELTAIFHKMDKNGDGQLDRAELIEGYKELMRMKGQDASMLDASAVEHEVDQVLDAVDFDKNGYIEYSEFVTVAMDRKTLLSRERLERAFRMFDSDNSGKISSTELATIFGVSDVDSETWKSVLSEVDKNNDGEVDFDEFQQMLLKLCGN

Plasmodium falciparum [4] = assay: Inhibition of male gametocytes exflagellation of Plasmodium falciparum at 1 uM relative to control; format: functional

SMILES	EC50 [1]	inhibition at 0.1 µM (Plasmodium falciparum [2])	IC50 [3]	inhibition at 1 µM (Plasmodium falciparum [4])
CCOc1ccc2cc(-c3nn(C(C)C)c(N)c3C(N)=O)cnc2c1	18.8 µM	80%	–	–
CCOc1ccc2cc(-c3nn(C4CCCCC4)c(N)c3C(N)=O)ccc2n1	14.1 µM	–	–	–
CCOc1ccc2cc(-c3nn(C4CCCCC4)c(N)c3C(N)=O)cnc2c1	–	–	12 nM	–
CCOc1ccc2cc(-c3nn(CC(C)(C)CO)c(N)c3C(N)=O)cnc2c1	> 30 µM	–	–	–
CCOc1ccc2cc(-c3nn(C(C)(C)C)c(N)c3C(N)=O)cnc2c1	> 30 µM	89%	–	87%
COc1ccc2cc(-c3nn(C(C)(C)C)c(N)c3C(N)=O)cnc2c1	> 30 µM	73%	–	–
